Test results taken from publication PMC6380468, “Investigations on small molecule inhibitors targeting the histone H3K4 tri-methyllysine binding PHD-finger of JmjC histone demethylases” (Bioorganic & Medicinal Chemistry, 2018).

Target: T1, KDM5A_c1 (M1-L801) (Homo sapiens, UniProt P29375)
T1 construct: made in house
T1 sequence (P29375 1-801): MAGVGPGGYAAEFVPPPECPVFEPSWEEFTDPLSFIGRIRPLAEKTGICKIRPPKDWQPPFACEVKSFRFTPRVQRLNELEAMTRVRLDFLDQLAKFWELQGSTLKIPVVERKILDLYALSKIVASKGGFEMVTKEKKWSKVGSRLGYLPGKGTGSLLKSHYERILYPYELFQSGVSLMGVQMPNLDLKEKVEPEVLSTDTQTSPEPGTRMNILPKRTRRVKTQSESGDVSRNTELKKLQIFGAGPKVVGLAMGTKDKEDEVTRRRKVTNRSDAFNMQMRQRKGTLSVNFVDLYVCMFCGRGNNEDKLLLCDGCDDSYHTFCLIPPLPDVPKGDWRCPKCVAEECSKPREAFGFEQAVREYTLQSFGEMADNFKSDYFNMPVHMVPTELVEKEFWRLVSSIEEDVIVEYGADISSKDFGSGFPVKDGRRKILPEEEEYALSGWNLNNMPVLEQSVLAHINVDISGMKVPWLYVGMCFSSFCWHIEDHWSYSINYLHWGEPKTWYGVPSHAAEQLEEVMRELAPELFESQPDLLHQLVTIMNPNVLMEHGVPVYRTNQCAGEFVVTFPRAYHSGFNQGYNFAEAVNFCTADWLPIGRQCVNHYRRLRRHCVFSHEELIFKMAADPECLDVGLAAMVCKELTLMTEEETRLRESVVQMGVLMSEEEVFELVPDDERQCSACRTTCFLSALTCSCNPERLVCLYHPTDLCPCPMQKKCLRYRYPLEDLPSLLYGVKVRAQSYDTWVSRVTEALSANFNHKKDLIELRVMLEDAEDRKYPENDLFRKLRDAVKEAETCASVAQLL
Assay: MALDI-TOF MS H3K4me3 demethylation assay, KDM5A_c1
Type: biochemical
Settings: average ± StdDev of n = 2, read-out: IC50, inhibition of H3K4me3 demethylation activity, KDM5A_c1
Description: Two catalytically active constructs of KDM5A were employed, KDM5A_c1 (M1-L801) and KDM5A_c2 (ΔARID/PHD1, P13-S744 with L88-G353 (ARID/PHD1) replaced with a GGGG linker) and both KDM5A_c1 and KDM5A_c2 constructs lack the PHD2 and PHD3. […] A MALDI-TOF MS assay was used to measure the activity of H3K4me3 demethylation in the presence of inhibitors (Table 2, Fig. 3C and D).
The KDM5A mixture (5 µL, KDM5A-c1: 1.0 µM or KDM5A-c2: 0.5 µM) was pre-incubated with 100 nL inhibitors (in DMSO) for 10 min. […] The mixture was quenched using formic acid (5 µL, 1 v/v% in MQ) after 4 minutes (KDM5A-c1) or 3 minutes (KDM5A-c2). The stopped reaction (1 µL) was mixed with […] (CHCA) MALDI matrix (saturated solution in TFA (0.1%) in MilliQ water and trifluoroacetic acid (0.1%) acetonitrile (1:1)) at 1:1 ratio (2 µL), air dried and analysed using Bruker microflex MALDI-TOF controlled with FlexControl. The data were further processed using FlexAnalysis and excel.

## CCCCc1oc2ccccc2c1C(=O)c1cc(I)c(OCCN(CC)CC)c(I)c1 [AMI, amiodarone, reference compound]
  IC50: > 1 mM
